Target: KDR (VEGFR2) (Homo sapiens (Human), UniProt P35968)
Experiment: SelectScreen Z'-LYTE kinase assay, Assay 540 for KDR (VEGFR2)
Assay type: biochemical

Chains of the proteins cited; added tags and fusions are not shown. Residues count along the entry.
UniProt P35968, 20-1356: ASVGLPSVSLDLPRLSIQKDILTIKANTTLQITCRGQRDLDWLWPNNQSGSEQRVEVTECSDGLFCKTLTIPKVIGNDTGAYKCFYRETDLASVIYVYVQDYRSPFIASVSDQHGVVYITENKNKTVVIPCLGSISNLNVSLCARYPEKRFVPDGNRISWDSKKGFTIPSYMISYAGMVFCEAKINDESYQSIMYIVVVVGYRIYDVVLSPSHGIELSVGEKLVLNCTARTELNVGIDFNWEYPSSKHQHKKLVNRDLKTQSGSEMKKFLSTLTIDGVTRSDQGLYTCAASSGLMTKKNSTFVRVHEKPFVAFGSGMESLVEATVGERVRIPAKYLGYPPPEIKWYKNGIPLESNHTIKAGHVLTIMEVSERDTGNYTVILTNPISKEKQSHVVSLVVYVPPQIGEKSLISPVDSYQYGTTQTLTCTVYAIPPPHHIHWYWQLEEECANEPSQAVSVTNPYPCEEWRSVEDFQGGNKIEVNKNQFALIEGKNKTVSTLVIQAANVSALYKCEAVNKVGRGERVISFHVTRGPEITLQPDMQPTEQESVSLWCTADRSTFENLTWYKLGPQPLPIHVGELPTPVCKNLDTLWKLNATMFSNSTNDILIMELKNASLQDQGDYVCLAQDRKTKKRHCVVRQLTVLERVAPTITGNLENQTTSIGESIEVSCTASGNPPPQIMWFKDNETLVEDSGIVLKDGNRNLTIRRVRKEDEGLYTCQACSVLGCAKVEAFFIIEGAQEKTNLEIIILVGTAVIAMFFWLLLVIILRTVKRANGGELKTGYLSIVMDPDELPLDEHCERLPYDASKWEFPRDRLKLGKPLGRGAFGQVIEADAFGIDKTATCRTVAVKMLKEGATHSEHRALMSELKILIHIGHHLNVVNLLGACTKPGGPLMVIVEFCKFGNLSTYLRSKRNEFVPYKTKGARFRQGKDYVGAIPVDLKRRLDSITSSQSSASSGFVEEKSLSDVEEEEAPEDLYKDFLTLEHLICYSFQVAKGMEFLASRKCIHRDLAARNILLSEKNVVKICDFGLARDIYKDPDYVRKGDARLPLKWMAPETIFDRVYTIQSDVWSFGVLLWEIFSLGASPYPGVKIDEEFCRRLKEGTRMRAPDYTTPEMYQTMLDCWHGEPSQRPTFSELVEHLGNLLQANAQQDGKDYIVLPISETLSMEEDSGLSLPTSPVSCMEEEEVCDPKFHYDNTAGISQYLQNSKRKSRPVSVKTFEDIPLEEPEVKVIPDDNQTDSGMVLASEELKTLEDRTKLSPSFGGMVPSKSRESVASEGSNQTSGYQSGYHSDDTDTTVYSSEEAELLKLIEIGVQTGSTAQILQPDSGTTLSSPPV

**Q.** For `COc1ccc(COc2ncc(Oc3ccc4c(=O)c5cc(C)cc(OCCN(C)C)c5oc4c3)cc2OC)cc1` [Example 12, 4-(2-(Dimethylamino)ethoxy)-6-((5-methoxy-6-((4-methoxybenzyl)oxy)pyridin-3-yl)oxy)-2-methyl-9H-xanthen-9-one], which IC50 is on record?
**A.** > 10 µM

Reference: patent US11028064B2, “Tricyclic heterocyclic derivatives and uses thereof” (AUCKLAND UNISERVICES LIMITED, priority 2016, dated 2021)
